This assay concerns the target CDK4/ cyclin D1 (Homo sapiens, UniProt P11802). In words: kinase inhibition selectivity, CDK4/cyclin D1. Type of assay: biochemical. The settings on record: calculated from dose response curves, Table 4.

Chains of the proteins cited; added tags and fusions are not shown.
UniProt P11802, whole entry, species assumed: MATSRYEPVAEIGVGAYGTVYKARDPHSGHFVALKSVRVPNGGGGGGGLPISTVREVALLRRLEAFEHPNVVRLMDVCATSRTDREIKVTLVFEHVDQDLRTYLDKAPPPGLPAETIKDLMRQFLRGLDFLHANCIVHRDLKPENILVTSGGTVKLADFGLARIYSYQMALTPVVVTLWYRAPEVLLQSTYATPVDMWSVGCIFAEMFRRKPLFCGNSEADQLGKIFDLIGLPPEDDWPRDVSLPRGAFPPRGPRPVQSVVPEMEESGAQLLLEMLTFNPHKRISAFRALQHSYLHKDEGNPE

For orientation: IC50 means the midpoint of a concentration-inhibition curve. `O=C1Nc2ccc(S(=O)(=O)O)cc2C1=C1Nc2ccccc2C1=O` [Example 11, Indirubine-5-sulfonic acid]: the IC50 is 300 nM.

These data come from patent EP1079826B1, “USE OF INDIGOID BISINDOLE DERIVATIVES FOR THE MANUFACTURE OF A MEDICAMENT TO INHIBIT CYCLIN DEPENDENT KINASES” (CNRS, Centre National de la Recherche Scientifique, priority 1998, dated 1999).
